From article PMC10825183 (Nature Communications, 2024)

Legend:
rbHCN4 ΔC-term (1-758) = rbHCN4 ΔC-term (1-758) (Oryctolagus cuniculus, UniProt Q9TV66); conditions: 1 µM cAMP
rbHCN4 full-length (FL) = biological target: T1, rbHCN4 full-length (FL) (Oryctolagus cuniculus, UniProt Q9TV66); test: Whole-cell patch clamp in HEK293T cells, HCN4 full length; assay type: cell-based, rabbit
T1 construct: The cDNA encoding the full-length rabbit HCN4 was previously cloned in pCI (Promega) mammalian expression vector; expressed in transfected cells; host or cells: HEK293T
T1 sequence (Q9TV66 1-1175): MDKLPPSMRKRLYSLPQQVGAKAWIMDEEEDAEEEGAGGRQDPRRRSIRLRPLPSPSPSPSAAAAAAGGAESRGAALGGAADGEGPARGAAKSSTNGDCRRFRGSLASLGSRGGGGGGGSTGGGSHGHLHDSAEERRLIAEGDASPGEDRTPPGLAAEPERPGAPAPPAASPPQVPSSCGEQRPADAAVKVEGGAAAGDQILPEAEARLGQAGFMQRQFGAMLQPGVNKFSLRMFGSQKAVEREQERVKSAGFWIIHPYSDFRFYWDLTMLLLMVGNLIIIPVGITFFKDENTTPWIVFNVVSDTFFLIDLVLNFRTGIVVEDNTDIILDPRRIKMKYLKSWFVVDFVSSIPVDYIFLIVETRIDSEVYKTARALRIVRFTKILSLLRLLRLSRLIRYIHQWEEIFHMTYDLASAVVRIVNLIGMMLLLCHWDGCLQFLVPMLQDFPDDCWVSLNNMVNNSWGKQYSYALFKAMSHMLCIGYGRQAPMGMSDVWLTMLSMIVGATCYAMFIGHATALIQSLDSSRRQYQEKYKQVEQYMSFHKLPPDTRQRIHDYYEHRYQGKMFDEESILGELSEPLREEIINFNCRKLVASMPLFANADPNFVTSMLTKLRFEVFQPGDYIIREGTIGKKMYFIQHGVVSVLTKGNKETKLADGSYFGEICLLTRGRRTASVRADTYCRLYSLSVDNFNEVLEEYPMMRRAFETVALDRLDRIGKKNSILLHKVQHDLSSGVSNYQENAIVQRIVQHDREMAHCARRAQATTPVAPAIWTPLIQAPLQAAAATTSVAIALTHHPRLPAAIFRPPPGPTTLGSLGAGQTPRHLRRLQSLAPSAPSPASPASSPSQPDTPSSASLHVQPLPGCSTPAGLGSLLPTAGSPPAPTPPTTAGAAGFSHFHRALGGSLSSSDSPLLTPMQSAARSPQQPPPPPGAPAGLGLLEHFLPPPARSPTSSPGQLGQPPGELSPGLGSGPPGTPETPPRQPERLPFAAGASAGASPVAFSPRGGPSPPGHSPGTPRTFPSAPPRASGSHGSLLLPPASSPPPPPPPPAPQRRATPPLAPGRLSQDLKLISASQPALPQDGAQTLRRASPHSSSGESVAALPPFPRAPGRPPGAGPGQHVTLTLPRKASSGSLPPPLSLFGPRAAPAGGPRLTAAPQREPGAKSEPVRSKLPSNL

rbHCN4 ΔDE’ (1-723) [1] = biological target: T2, rbHCN4 ΔDE’ (1-723) (Oryctolagus cuniculus, UniProt Q9TV66); conditions: 5 µM cAMP
rbHCN4 ΔDE’ (1-723) [2] = biological target: T2, rbHCN4 ΔDE’ (1-723); test: cell-based
rbHCN4 D750A [3] = biological target: T3, rbHCN4 D750A (Oryctolagus cuniculus, UniProt Q9TV66, D750A); test: cell-based
rbHCN4 ΔE (1-733) = biological target: T4, rbHCN4 ΔE (1-733) (Oryctolagus cuniculus, UniProt Q9TV66); test: Whole-cell patch clamp in HEK293T cells, HCN4 ΔE; assay type: cell-based, rabbit
T4 construct: rbHCN4 ΔE (1-733); expressed in transfected cells; host or cells: HEK293T
T4 sequence (Q9TV66 1-733): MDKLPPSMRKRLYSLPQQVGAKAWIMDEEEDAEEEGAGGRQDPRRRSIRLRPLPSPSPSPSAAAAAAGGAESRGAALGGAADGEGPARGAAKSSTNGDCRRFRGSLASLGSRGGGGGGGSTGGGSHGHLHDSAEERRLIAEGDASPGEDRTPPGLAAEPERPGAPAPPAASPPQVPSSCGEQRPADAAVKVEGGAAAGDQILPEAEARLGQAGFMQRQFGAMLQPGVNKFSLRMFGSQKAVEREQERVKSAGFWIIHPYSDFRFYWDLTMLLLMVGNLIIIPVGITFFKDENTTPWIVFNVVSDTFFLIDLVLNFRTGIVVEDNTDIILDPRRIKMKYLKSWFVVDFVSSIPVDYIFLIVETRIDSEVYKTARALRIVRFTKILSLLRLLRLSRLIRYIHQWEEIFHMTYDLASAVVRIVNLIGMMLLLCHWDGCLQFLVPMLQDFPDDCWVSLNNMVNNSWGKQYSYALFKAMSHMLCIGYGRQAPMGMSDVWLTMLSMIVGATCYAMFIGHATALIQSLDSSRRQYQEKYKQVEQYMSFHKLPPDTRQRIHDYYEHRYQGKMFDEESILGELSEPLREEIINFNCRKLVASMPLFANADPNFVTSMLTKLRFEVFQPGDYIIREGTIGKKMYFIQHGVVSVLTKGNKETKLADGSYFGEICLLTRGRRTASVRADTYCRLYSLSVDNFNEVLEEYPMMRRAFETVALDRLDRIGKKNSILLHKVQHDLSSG

rbHCN4 ΔDE (1-718) [4] = biological target: T5, rbHCN4 ΔDE (1-718) (Oryctolagus cuniculus, UniProt Q9TV66); test: cell-based
rbHCN4 ΔDE (1-718) [5] = biological target: T5, rbHCN4 ΔDE (1-718); conditions: 5 µM cAMP
rbHCN4 D750A [6] = biological target: T3, rbHCN4 D750A; conditions: 5 µM cAMP

Structure (SMILES): Nc1ncnc2c1ncn2[C@@H]1O[C@@H]2COP(=O)(O)O[C@H]2[C@H]1O [cAMP, Adenosine 3′,5′-cyclic monophosphate]
- V1/2 shift due to cAMP (rbHCN4 ΔC-term (1-758)): 12.7 ± 2.1 mV and 12.7 mV
- EC50 (rbHCN4 full-length (FL)): 1.35 µM
- V1/2 shift due to cAMP (rbHCN4 full-length (FL); 1 µM cAMP): 11.4 ± 1.9 mV and 11.4 mV
- V1/2 shift due to cAMP (rbHCN4 full-length (FL); 5 µM cAMP): 14.9 ± 2 mV and 14.9 mV
- V1/2 shift due to cAMP (rbHCN4 ΔDE’ (1-723) [1]): 6.3 ± 1.9 mV
- EC50 (rbHCN4 ΔDE’ (1-723) [2]): 9.3 µM
- EC50 (rbHCN4 D750A [3]): 10.4 µM
- EC50 (rbHCN4 ΔE (1-733)): 8.6 µM
- V1/2 shift due to cAMP (rbHCN4 ΔE (1-733); 5 µM cAMP): 7 ± 1.9 mV
- EC50 (rbHCN4 ΔDE (1-718) [4]): 38 µM
- V1/2 shift due to cAMP (rbHCN4 ΔDE (1-718) [5]): 1.4 ± 1 mV
- V1/2 shift due to cAMP (rbHCN4 D750A [6]): 5.2 ± 1.2 mV

Where “and” joins values, the source holds several entries; their conditions need not be identical. Equal entries are not always repeated.
